Patent US20240166604A1, “HYDROXYTYROSOL NICOTINAMIDE EUTECTIC CRYSTAL, AND PREPARATION METHOD THEREFOR AND COMPOSITION THEREOF” (COCRYSTAL TECHNOLOGY (JIAXING) CO., LTD., priority 2021, published 2024)

Assay: Chemical stability at 40° C./75% RH, hydroxytyrosol content by HPLC
Assay type: physicochemical
Details: double-layer polyethylene bags, 30 d, % of initial content
Protocol: The chemical stabilities of hydroxytyrosol, hydroxytyrosol embedding powder, co-crystal of hydroxytyrosol and nicotinamide obtained in Example 1, and the compositions obtained in Example 4 and Example 5 at 40° C./75% RH were compared.
An appropriate amount of powder sample was put in an accelerated stability chamber at 40° C./75% RH with the packaging condition of double-layer polyethylene bags, and the sample was taken at 0 d, 14 d, and 30 d. The content of hydroxytyrosol was determined by high performance liquid chromatography (the content was calculated by external standard method).
The conditions for the liquid chromatography were as follows: • Mobile phase: phase A: 0.1% aqueous trifluoroacetic acid solution, phase B: acetonitrile; flow rate: 1 mL/min; detection wavelength: 280 nm; column: C18 Plus 4.6×150 mm×5 μm; • Gradient: • 0-10 min—A:B (95:5); • 10.1-14 min—A:B (50:50); • 14.0-17 min—A:B (95:5).

co-crystal of hydroxytyrosol and nicotinamide [Example 1]
content of hydroxytyrosol, Day 30: 100.6% | content of hydroxytyrosol, Day 30 (listed as co-crystal of hydroxytyrosol and nicotinamide): ≥ 99%
